For assay [1], the target named is Androgen receptor (Homo sapiens) (UniProt P10275). Kind of assay: ATG_AR_TRANS: Attagene TRANS-FACTORIAL HepG2 Assay for human Androgen Receptor (AR) (AID 2282973). As to conditions: HepG2 Attagene TRANS-FACTORIAL AR reporter transcription. The essentials: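 Steps: transfect HepG2 with multiple GAL4-UAS reporter transcription units (TRANS format, exogenous NR-Gal4 protein); dose 24 h; isolate RNA, reverse-transcribe, PCR-amplify, FAM-label, HpaI-digest; resolve by capillary electrophoresis. Positive direction vs DMSO.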

Chains of the proteins cited; added tags and fusions are not shown. Lines headed by an entry give the natural chain unless they say otherwise; changes in a name come on top.
UniProt P10275: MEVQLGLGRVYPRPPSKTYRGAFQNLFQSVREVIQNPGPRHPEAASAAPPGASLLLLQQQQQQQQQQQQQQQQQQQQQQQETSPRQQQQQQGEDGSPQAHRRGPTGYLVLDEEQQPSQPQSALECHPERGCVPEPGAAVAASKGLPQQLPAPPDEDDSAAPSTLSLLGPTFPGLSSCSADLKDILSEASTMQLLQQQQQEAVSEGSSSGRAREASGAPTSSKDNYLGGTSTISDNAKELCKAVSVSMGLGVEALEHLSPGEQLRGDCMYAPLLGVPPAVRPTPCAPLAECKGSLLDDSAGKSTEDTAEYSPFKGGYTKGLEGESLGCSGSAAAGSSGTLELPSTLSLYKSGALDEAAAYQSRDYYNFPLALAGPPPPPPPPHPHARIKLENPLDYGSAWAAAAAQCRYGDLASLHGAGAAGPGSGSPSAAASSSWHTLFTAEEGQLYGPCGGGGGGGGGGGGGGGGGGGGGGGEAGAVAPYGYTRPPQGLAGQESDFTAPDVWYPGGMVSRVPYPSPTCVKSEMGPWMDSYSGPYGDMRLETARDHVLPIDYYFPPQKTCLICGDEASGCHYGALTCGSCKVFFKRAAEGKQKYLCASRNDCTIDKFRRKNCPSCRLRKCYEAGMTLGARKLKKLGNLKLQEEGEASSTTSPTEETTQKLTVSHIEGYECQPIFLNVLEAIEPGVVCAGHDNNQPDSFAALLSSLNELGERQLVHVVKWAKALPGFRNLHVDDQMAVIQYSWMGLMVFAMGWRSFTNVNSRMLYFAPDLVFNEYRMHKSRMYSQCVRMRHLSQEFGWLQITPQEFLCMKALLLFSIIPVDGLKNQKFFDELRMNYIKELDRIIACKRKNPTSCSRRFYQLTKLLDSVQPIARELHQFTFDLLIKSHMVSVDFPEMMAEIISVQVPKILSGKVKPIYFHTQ
UniProt P62508: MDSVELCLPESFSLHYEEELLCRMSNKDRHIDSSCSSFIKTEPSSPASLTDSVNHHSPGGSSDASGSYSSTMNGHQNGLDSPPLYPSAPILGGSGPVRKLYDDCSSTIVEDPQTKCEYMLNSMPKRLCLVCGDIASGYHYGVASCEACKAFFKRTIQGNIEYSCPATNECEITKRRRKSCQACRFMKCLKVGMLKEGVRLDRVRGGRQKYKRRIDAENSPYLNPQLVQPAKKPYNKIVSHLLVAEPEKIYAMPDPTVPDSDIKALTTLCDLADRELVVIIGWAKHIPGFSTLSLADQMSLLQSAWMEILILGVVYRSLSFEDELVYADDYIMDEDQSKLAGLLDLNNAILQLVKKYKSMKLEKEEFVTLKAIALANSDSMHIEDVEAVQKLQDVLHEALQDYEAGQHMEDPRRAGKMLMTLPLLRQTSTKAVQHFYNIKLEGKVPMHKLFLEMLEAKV
UniProt Q96RI1: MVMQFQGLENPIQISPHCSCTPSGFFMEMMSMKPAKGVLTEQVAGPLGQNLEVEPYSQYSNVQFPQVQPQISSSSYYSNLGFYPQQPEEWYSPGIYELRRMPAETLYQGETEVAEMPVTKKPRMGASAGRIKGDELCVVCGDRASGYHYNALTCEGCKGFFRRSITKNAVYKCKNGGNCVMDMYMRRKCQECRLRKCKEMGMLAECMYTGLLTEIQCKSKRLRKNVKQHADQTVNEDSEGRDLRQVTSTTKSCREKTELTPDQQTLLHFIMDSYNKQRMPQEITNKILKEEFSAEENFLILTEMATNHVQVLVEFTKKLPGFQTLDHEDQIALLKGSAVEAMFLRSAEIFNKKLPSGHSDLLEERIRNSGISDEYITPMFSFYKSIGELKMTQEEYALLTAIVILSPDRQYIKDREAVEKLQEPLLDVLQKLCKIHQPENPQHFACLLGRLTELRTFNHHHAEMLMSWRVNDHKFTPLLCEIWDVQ
UniProt Q13133, whole entry, looked up: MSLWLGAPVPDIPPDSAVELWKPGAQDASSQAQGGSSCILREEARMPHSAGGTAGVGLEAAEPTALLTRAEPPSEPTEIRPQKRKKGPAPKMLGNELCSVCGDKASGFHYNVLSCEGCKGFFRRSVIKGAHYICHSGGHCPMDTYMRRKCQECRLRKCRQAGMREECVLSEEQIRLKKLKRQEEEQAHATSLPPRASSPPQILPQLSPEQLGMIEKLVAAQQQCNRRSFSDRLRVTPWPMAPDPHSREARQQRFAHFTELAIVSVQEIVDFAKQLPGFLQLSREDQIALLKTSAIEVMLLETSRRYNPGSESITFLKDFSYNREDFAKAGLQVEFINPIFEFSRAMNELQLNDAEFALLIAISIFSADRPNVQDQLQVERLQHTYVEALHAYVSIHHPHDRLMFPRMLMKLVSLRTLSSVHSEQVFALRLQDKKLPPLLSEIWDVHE
UniProt P55055, whole entry, looked up: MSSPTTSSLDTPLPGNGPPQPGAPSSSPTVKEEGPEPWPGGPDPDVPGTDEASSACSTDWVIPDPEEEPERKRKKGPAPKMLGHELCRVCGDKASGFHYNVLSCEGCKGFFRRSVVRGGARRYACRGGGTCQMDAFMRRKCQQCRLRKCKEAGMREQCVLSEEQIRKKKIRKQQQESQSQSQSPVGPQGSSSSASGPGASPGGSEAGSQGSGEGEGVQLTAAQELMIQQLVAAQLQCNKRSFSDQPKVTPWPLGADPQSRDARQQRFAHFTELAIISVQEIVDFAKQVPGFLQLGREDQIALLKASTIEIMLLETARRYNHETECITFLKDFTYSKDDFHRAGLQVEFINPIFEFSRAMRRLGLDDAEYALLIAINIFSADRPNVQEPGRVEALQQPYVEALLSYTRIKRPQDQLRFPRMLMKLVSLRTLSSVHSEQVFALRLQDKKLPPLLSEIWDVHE
UniProt P04150: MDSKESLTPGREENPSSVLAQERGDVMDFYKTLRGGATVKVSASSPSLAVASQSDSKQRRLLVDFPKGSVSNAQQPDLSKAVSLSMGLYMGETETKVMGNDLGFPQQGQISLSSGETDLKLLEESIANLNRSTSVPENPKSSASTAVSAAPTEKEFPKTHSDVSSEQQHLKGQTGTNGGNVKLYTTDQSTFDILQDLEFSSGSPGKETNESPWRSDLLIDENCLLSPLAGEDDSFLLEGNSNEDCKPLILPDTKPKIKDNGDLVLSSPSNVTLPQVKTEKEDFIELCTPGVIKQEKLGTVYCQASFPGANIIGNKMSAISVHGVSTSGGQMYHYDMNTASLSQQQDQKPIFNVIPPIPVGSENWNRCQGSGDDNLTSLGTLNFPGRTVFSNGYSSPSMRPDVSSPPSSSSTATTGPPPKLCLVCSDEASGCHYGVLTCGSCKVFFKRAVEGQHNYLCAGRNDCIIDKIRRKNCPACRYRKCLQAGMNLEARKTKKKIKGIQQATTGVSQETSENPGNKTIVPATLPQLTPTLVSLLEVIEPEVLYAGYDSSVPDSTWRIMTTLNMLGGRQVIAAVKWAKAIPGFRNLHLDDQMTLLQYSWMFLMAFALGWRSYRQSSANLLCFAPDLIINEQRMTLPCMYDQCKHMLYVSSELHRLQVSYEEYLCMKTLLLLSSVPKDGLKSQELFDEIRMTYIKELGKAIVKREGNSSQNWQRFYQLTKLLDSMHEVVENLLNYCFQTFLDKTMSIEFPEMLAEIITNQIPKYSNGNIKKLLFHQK

Assay [2] addresses Estrogen-related receptor gamma (Homo sapiens) (UniProt P62508). The assay is described as follows: ATG_ERRg_TRANS: Attagene TRANS-FACTORIAL HepG2 Assay for human Estrogen-Related Receptor gamma (ERRg) (AID 2282977).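 Also: hits increase reporter signal over DMSO so potencies reflect activators.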 The settings on record: HepG2 Attagene TRANS reporter, ERRg transactivation. The method in brief:
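Transfect HepG2 with multiple GAL4-UAS reporter transcription units; dose chemicals 24 h; isolate RNA, reverse-transcribe with oligo(dT), PCR-amplify, label with 6-FAM, digest with HpaI; size fragments by capillary electrophoresis. DMSO serves as negative control.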

The target of assay [3] is Bile acid receptor (Homo sapiens) (UniProt Q96RI1). Kind of assay: ATG_FXR_TRANS: Attagene TRANS-FACTORIAL HepG2 Assay for Farnesoid X Receptor (FXR) (AID 2282979).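 Also: hits raise reporter mRNA above DMSO so AC50 marks FXR activation.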 The settings on record: HepG2 Attagene TRANS FXR-GAL4 reporter transcription. The method in brief: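 Transient transfection of HepG2 with multiplexed GAL4-UAS reporter units; exogenous FXR-GAL4 chimera. Dose 24 h → TriZol RNA → oligo(dT) RT → PCR, 6-FAM primer extension, HpaI cut → CE. Gain vs DMSO.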

The target in assay [4] is Oxysterols receptor LXR-alpha (Homo sapiens) (UniProt Q13133). The assay is described as follows: ATG_LXRa_TRANS: Attagene TRANS-FACTORIAL HepG2 Assay for human Liver X Receptor alpha (LXRa) (AID 2282980). The settings on record: HepG2 Attagene TRANS reporter, LXRa transactivation. The essentials: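 Transfect HepG2 with GAL4-UAS multiplex reporter constructs (TRANS format, chimeric receptor-GAL4); treat 24 h; extract RNA, reverse-transcribe, PCR-amplify, FAM-label, HpaI-digest; resolve fragments by capillary electrophoresis. Upward response vs DMSO.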

The target of assay [5] is Oxysterols receptor LXR-beta (Homo sapiens) (UniProt P55055). The assay is described as follows: ATG_LXRb_TRANS: Attagene TRANS-FACTORIAL HepG2 Assay for human Liver X Receptor beta (LXRb) (AID 2282981). The settings on record: HepG2 Attagene TRANS GAL4-LXRb reporter, mRNA. The method in brief:
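In this TRANS format, exogenous chimeric NR-Gal4 protein activity, not endogenous factors, drives reporter expression in transfected human HepG2 cells. Exposure lasted 24 h; reporter mRNA was read by fluorescent capillary electrophoresis.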

A short description of assay [6]: ATG_M_06_TRANS: Attagene TRANS-FACTORIAL HepG2 Assay for M06 Transcription Factor (Internal Marker) (AID 2282983).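 Also: reporter transcript level by RT-PCR then capillary electrophoresis fluorescence.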 As to conditions: HepG2 Attagene TRANS M06 internal marker reporter. The essentials: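 Transfect HepG2 with MRTUs → dose compounds 24 h → isolate RNA, oligo(dT) RT → PCR with reporter primers → 6-FAM primer extension → HpaI digest → CE fragment analysis. Positive direction vs DMSO.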

The nature of assay [7]: ATG_M_19_TRANS: Attagene TRANS-FACTORIAL HepG2 Assay for M19 Transcription Factor (Internal Marker) (AID 2282974). The settings on record: HepG2 Attagene TRANS-FACTORIAL M19 internal marker reporter. The essentials: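 Transfected HepG2 (GAL4-UAS MRTUs), 24 h compound, TriZol RNA, DNase-treated RT, reporter PCR, FAM label, HpaI digest, CE fluorescence; gain vs DMSO.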
A short description of assay [8]: ATG_GAL4_TRANS: Attagene TRANS-FACTORIAL HepG2 Assay for GAL4 (Internal Marker) (AID 2282976). The settings on record: HepG2 Attagene TRANS GAL4 internal marker reporter. The essentials: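 First, HepG2 cells were transfected with reporter units under GAL4-UAS control. Next, they were treated with chemical for 24 h. Finally, RNA was reverse-transcribed, PCR-amplified, FAM-labelled and resolved by capillary electrophoresis, with induction scored against DMSO.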

The target in assay [9] is Glucocorticoid receptor (Homo sapiens) (UniProt P04150). The assay is described as follows: ATG_GR_TRANS: Attagene TRANS-FACTORIAL HepG2 Assay for human Glucocorticoid Receptor (GR) (AID 2282978).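 Also: activators score as hits since higher reporter transcript over DMSO is fitted.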 The settings on record: HepG2 Attagene TRANS GR reporter, mRNA transcription.
Assay [10] in a line: ATG_Hpa5_TRANS: Attagene TRANS-FACTORIAL HepG2 Assay for human GAL4-Hpa5 Hepatocyte Transcription Factor Basal Promoter (AID 2282975).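 Also: hits are increases in reporter mRNA over DMSO baseline.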 As to conditions: HepG2 Attagene GAL4-Hpa5 transcription reporter. As for the experimental part: ATG_TRANS is a cell-based, multiplexed-readout assay that uses HepG2, a human liver cell line, with measurements taken at 24 hours after chemical dosing in a 24-well plate.ATG_Hpa5_TRANS is one of 30 assay component(s) measured or calculated from the ATG_TRANS assay. It is designed to make measurements of mRNA induction, a form of inducible reporter, as detected with fluorescence intensity signals by Reverse transcription polymerase chain reaction (RT-PCR) and Capillary electrophoresis technology.Data from the assay component ATG_Hpa5_TRANS was analyzed into 1 assay endpoint. This assay endpoint, ATG_Hpa5_TRANS, was analyzed in the positive analysis fitting direction relative to DMSO as the negative control and baseline of activity. […] Furthermore, this assay endpoint can be referred to as a secondary readout, because this assay has produced multiple assay endpoints where this one serves a background control function. […]
Human liver HepG2 cells are transiently transfected with multiple reporter transcription units (MRTUs) in 6-well plates using FuGene 6 reagent (Roche; 3 ml FuGene/1 mg DNA). […] A major difference between the CIS and TRANS system is that in CIS activities of endogenous TFs are measured, whereas the TRANS assay evaluates changes in activities of exogenous, chimeric NR-Gal4 proteins. […]

The entries are a selection whose mix differs from that of the whole data set. Inconclusive results are not listed. The source made the active and inactive calls. The calls were made as follows: active = hit-call score of the fitted dose curve at least 0.9, where 1 is the maximum; inconclusive = response in the unintended direction; inactive = score below 0.9.

Outcome and AC50 data for 17 molecules are collected here from PubChem BioAssay (EPA / NIEHS).

As to `O=C(Cl)Oc1ccccc1`, the outcome in assay [1], in [2], in assay [3], in assay [4], in assay [5] and in [6] was inactive.
In the case of `N#CSc1ccc([N+](=O)[O-])cc1[N+](=O)[O-]`, the outcome in assay [7] and in [3] was inactive.
With `O=[P+](Oc1ccccc1)Oc1ccccc1`, the molecule was called inactive in assay [1], in assay [8], in [4] and in [6].
As to `O=P(Cl)(Oc1ccccc1)Oc1ccccc1`, the molecule was called inactive in [7], in [9] and in assay [5].
`ClP(Cl)c1ccccc1`: the call in assay [8], in [9], in [5] and in assay [6] was inactive.
As for `O=[N+]([O-])c1ccc([N+](=O)[O-])cc1`, the call in assay [3], in assay [4], in assay [5] and in [6] was inactive.
Regarding `CN(C(=O)Cc1cccc2occc12)[C@H]1CC[C@@]2(CCCO2)C[C@@H]1N1CCCC1`, the outcome in [9], in [5] and in assay [6] was inactive.
Turning to `CCCCOP(OCCCC)OCCCC`, the molecule was classed as inactive in assay [1], in assay [7], in assay [8] and in assay [3].
For `O=C1C2CC=CCC2C(=O)N1SC(Cl)(Cl)C(Cl)Cl` (centres undefined), the outcome in assay [1], in assay [7], in [10], in assay [9], in [3] and in assay [4] was inactive. Moreover, the call in assay [5] and in assay [6] was inactive.
Turning to `CCCCO[P+](=O)OCCCC`, the outcome in [8], in [2] and in assay [6] was inactive.
As to `Cc1cc([N+](=O)[O-])cc([N+](=O)[O-])c1O`, the molecule was called inactive in assay [7], in [9], in assay [3] and in [4]. Besides, the AC50 (as a rule, the midpoint of the concentration-response curve, whichever way the signal moves) in [5] is active: 29.2 µM.
With `O=C(Cl)OCCOC(=O)Cl`, the call in assay [1], in assay [7], in assay [8] and in assay [6] was inactive.
`CCCCC(CC)CO[P+](=O)OCC(CC)CCCC` (centres undefined): the result in [7], in [8], in assay [9], in assay [5] and in assay [6] was inactive.
Consider `CC(C)OP(=S)(OC(C)C)SCCNS(=O)(=O)c1ccccc1`, for which the result in assay [7], in assay [2], in assay [9], in assay [4] and in [5] was inactive.
Turning to `O=[p+]1oc2ccccc2c2ccccc21` (centres undefined), the outcome in assay [7], in assay [8], in assay [9], in [3] and in assay [5] was inactive.
`O=[As]c1ccccc1` (centres undefined): the molecule was classed as inactive in assay [2], in assay [4], in [5] and in assay [6].
For the molecule `CC(C)CCCCCCCOP(OCCCCCCCC(C)C)Oc1ccccc1`, the outcome in [7], in assay [9], in [4], in assay [5] and in [6] was inactive.
